The numbers were not newly measured in PMC4368798, which cites them from elsewhere.

Chains of the proteins cited; added tags and fusions are not shown. Residues count along the entry.
UniProt Q07954, 20-4544: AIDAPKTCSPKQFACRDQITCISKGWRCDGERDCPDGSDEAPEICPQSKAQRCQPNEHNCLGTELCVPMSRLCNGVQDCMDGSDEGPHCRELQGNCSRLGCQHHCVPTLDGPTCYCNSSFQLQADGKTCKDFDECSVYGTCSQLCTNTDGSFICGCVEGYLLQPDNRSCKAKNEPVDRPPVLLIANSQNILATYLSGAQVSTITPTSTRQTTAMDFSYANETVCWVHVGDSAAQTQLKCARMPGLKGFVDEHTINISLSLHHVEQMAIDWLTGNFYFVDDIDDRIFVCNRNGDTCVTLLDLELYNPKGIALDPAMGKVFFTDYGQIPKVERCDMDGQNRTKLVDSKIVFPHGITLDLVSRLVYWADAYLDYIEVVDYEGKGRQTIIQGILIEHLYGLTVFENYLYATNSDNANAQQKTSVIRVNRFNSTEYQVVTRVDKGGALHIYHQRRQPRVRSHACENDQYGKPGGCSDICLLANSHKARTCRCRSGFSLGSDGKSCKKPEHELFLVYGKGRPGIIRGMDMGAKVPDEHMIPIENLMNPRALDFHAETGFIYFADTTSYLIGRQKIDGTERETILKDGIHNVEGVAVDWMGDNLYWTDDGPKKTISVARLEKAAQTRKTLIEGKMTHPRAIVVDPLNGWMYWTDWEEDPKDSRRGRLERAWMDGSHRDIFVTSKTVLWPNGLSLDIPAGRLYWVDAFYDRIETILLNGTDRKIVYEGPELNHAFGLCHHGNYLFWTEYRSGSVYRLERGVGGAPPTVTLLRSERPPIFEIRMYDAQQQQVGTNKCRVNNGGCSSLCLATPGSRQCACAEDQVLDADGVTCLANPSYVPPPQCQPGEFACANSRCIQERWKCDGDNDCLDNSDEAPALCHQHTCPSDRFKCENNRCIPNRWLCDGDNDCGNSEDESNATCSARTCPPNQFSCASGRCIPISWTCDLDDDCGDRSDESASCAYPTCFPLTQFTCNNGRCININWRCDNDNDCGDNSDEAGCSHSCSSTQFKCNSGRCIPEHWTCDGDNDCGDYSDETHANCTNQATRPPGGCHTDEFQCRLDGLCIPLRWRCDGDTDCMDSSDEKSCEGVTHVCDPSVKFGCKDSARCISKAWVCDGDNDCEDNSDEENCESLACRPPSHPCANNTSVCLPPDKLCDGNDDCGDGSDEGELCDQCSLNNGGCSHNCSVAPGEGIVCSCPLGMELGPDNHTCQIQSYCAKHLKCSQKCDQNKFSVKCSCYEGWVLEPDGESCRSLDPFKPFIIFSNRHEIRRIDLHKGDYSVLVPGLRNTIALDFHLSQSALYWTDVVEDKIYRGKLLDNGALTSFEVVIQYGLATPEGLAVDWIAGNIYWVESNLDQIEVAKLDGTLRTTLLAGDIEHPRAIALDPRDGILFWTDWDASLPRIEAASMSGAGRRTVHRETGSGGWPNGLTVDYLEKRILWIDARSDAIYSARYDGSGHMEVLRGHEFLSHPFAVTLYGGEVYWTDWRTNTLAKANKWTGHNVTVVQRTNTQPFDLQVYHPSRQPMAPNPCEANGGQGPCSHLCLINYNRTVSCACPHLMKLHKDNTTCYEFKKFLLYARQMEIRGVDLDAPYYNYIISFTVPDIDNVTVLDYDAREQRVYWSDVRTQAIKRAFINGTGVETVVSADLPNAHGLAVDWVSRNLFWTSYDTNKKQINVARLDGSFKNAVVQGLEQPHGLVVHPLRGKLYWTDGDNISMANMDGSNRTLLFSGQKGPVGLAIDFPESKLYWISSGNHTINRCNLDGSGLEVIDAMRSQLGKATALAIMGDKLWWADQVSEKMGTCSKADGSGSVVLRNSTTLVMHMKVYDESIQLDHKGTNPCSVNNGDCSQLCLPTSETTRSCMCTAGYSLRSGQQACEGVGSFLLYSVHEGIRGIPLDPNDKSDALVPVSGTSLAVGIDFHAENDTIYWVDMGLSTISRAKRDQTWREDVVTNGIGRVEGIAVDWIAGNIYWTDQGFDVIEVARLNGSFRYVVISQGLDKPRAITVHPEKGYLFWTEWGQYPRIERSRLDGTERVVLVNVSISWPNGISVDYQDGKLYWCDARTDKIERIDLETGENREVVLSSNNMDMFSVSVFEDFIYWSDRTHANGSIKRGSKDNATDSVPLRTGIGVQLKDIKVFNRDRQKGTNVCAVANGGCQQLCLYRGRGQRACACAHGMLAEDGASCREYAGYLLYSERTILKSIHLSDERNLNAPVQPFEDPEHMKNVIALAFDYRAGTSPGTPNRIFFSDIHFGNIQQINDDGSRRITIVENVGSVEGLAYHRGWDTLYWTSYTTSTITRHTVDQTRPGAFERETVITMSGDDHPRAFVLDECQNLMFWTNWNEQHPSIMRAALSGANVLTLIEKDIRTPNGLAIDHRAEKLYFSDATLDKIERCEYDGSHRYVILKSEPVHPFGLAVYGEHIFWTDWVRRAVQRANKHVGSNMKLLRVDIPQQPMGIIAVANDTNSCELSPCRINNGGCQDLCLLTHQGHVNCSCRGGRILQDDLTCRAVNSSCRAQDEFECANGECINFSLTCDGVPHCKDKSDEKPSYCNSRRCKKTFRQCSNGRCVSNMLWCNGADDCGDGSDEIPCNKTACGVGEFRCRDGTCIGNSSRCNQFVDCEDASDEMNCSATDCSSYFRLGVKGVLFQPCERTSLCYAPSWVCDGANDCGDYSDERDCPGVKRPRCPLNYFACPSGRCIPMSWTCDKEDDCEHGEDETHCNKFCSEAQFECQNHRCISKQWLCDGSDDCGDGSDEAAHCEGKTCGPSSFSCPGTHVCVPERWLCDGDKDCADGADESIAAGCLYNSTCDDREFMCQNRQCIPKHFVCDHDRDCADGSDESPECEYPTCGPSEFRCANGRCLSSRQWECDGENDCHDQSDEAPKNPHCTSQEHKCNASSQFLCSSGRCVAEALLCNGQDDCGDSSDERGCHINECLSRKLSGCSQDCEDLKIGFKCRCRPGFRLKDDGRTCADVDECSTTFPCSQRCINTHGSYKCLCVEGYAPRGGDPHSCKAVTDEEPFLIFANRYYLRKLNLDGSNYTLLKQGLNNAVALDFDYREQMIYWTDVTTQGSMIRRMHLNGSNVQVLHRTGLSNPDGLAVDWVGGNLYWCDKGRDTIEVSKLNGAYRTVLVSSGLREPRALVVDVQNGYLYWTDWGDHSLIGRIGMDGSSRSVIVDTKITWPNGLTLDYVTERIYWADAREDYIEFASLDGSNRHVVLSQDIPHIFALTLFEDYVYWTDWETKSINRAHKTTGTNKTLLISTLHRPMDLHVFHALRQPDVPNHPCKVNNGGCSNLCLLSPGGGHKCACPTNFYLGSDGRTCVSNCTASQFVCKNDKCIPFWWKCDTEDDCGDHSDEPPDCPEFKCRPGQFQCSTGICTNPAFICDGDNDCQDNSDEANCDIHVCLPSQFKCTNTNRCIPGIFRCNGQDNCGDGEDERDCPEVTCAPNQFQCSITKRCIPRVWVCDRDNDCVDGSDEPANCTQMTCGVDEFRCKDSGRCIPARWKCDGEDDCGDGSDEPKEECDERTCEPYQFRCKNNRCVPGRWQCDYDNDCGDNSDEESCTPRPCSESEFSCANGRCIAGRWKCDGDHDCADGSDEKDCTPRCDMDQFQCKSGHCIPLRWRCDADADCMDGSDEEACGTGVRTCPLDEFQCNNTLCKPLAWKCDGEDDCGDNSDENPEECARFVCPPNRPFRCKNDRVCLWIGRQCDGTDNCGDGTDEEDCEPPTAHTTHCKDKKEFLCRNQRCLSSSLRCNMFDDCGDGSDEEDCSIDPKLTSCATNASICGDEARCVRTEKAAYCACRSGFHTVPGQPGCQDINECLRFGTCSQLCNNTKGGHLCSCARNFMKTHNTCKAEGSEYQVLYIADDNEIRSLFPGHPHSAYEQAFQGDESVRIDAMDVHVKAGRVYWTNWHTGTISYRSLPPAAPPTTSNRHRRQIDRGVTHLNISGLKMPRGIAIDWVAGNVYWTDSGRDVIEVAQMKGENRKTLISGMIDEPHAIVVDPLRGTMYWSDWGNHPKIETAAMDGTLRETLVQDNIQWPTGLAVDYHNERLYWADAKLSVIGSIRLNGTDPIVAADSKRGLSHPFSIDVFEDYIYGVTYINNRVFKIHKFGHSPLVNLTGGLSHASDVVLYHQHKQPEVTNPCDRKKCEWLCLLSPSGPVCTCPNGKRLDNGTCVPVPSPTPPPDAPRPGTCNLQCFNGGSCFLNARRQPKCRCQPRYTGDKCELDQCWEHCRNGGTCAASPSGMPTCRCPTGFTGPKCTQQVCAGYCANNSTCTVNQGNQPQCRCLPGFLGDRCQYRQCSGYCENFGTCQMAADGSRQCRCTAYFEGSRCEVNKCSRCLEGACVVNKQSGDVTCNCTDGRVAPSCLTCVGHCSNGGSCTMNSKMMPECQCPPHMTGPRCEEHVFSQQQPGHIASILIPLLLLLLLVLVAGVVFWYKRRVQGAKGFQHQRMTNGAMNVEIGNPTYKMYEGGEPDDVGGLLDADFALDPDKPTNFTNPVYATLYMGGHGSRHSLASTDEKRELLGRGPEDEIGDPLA

This data set deals with LRP-1A (Homo sapiens) (UniProt Q07954).

One may read the Kd as the free concentration of one partner at which half of the binding sites on the other are occupied at equilibrium, for simple one-to-one binding. Regarding pro-uPA (from UniProt P00749), the Kd was 15 nM.
